Results as given in patent EP0812190B1 (priority 1993, dated 1995).

Sequences of proteins named here, by UniProt entry; tags and fusion partners are left off.
UniProt P21396, whole entry: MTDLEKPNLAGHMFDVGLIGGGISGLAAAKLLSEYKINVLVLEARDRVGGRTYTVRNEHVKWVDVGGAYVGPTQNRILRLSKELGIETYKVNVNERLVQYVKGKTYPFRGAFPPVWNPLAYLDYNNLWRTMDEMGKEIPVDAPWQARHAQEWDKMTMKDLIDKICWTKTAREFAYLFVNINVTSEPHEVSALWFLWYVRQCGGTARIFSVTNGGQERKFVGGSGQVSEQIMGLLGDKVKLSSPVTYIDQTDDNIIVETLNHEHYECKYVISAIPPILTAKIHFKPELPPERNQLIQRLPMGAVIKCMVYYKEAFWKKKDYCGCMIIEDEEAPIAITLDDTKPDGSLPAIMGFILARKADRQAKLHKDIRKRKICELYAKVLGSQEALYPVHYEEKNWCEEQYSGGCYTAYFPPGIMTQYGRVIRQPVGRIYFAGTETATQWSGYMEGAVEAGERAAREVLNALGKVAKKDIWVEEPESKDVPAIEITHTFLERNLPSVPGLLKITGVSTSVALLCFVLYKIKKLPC

Molecular target: MAO-A (Rattus norvegicus, UniProt P21396)
Test: Inhibition of MAO activity in vivo, acute treatment, MAO-A
Set-up: MAO activity determined in brain and liver using the general technique described above; from tissue; host or cells: brain and liver of treated rats
Settings: dose used in tyramine pressor test (2 mg/kg)

## C#CCN(C)CCCOc1ccc(Cl)cc1Cl [Clorgyline, reference compound]
  inhibition of hepatic MAO-A activity: over 85%
